Results as given in patent publication US8906919B2, “Treatment of non-neuronal and non-myocardial cell, tissue and organ damage and associated pain with persistent sodium current blockers” (Ozteo Pty Ltd, priority 2009, dated 2014).
Read-outs that look alike come from different tables or passages of the source.

How the values were obtained:
[1] = system: tibialis anterior skeletal muscles; conditions: pig, 2 mg/kg iv before ischaemia
Experimental: A further ten minutes was allowed for drug circulation prior to the induction of ischaemia. […] Samples of reperfused tissue were excised 45 minutes following reperfusion. Samples of non-reperfused ischaemic tissue were excised 3 hours post occlusion.

[2] = system: kidney tissue; conditions: rat
Experimental: (§1) Additional studies were performed on kidney tissue in 48 isoflurane-anaesthetised, male Wistar albino rats (300-350 g). […] A further ten minutes was allowed for drug circulation prior to the induction of ischaemia. Tissue ischaemia was produced in all animals by occluding the renal artery to the left kidney. Immediately prior to occlusion, a 1,000 unit bolus of IV heparin was injected to prevent blood clotting and to permit reperfusion. Occlusion was maintained for 3 hours following which, in 6 animals in each group, the occlusion was released and reperfusion of the kidney was allowed. Samples of reperfused tissue were excised 45 minutes following reperfusion. Samples of non-reperfused ischaemic tissue were excised 3 hours post occlusion. Samples of ischaemic tissue and of reperfused tissue were taken from different animals. Samples of non-ischaemic, non-treated tissue were excised from the right kidney of the non-treated group.
Persistent sodium current blockade was evaluated for its effect on kidney tissue glutathione levels during ischaemia and reperfusion.

[3] = system: kidney tissue; conditions: rat, iv before ischaemia (riluzole 5 mg/kg, lidocaine 1 mg/kg, lamotrigine 20 mg/kg)
Experimental: as §1
In addition, persistent sodium current blockade was assessed for its affect on kidney tissue DNA fragmentation during ischaemia and reperfusion. […] All panels were illuminated by light with wavelength around 520 nm to show DNA fragmentation.

Compound: Nc1nc2ccc(OC(F)(F)F)cc2s1 [riluzole, 2-amino-6-trifluoromethoxybenzothiazole]
- tissue fibre waviness, H&E staining ([1]; 3 h femoral artery occlusion, no reperfusion (group 3)): no tissue fibre waviness
- marbling of tissue (oedema), H&E staining ([1]; 3 h femoral artery occlusion, no reperfusion (group 3, FIG. 4)): slight marbling
- level of glutathione compared with non-treated and non-ischaemic tissue ([1]; 3 h ischaemia and 45 min reperfusion (FIG. 6, 615 vs 611)): comparable
- level of glutathione compared with non-treated ischaemic and reperfused tissue ([1]; 3 h ischaemia and 45 min reperfusion (FIG. 6, 615 vs 613)): significantly greater
- level of glutathione compared with non-treated and non-ischaemic tissue ([1]; 3 h ischaemia, no reperfusion (FIG. 6, 614 vs 611)): comparable
- level of glutathione compared with non-treated ischaemic tissue ([1]; 3 h ischaemia, no reperfusion (FIG. 6, 614 vs 612)): significantly greater
- tissue fibre waviness, H&E staining ([1]; 3 h occlusion and 45 min reperfusion (group 4)): no tissue fibre waviness
- marbling of tissue (oedema), H&E staining ([1]; 3 h occlusion and 45 min reperfusion (group 4, FIG. 5), compared with non-treated group 2): very little marbling
- damaged nuclei (DNA fragmentation) ([1]; ischaemia and reperfusion (FIG. 7, panel 706)): does not show any damaged nuclei
- damaged nuclei (DNA fragmentation) ([1]; ischaemia, not reperfused (FIG. 7, panel 704)): does not show any damaged nuclei
- kidney glutathione levels compared with non-treated, non-ischaemic and non-reperfused group ([2]; iv before ischaemia (riluzole 5 mg/kg, lidocaine 1 mg/kg), 3 h ischaemia and 45 min reperfusion (FIG. 9, vs 901)): not significantly different
- kidney glutathione levels compared with non-treated reperfused group ([2]; iv before ischaemia (riluzole 5 mg/kg, lidocaine 1 mg/kg, lamotrigine 20 mg/kg), 3 h ischaemia and 45 min reperfusion (FIG. 9)): significantly higher
- kidney glutathione levels after ischaemia ([2]; iv before ischaemia (riluzole 5 mg/kg, lidocaine 1 mg/kg, lamotrigine 20 mg/kg), 3 h renal artery occlusion, no reperfusion (FIG. 8)): not significantly reduced
- damaged nuclei (DNA fragmentation) in renal tubules compared with non-treated tissue ([3]; 3 hours of ischaemia and 45 minutes of reperfusion (FIG. 10)): relatively few damaged nuclei
- damaged nuclei (DNA fragmentation) in renal tubules compared with non-treated tissue ([3]; 3 hours of ischaemia and no reperfusion (FIG. 10)): considerably fewer damaged nuclei
